Results taken from article PMC5907308, “21st Brazilian Diabetes Society Congress” (Diabetology & Metabolic Syndrome, 2018).

Assays:
[1] = system: elderly patients with T2DM; experiment: Pilot randomized trial Ideg vs Iglar-U100 with CGM; format: in vivo, human
[2] = system: patients with T2D; experiment: Network meta-analysis Gla-300 vs IDeg (inputs of the cost-effectiveness model); format: in vivo, human; conditions: estimated by network meta-analysis
[3] = system: participants with T1DM; experiment: Multiple-dosing crossover euglycemic glucose clamp study, steady-state PK/PD; format: in vivo, human; conditions: for Distribution of INS-AUC0-24, 6-h fraction 0–6 h / Distribution of INS-AUC0-24, 6-h fraction 6–12 h / Distribution of INS-AUC0-24, 6-h fraction 12–18 h / Distribution of INS-AUC0-24, 6-h fraction 18–24 h: data the same at 0.4 and 0.6 U/kg/day; for relative degree of INS fluctuation (Frel), lower vs. Deg-100: serum insulin
[4] = background statement; no reference given; cited from earlier work
[5] = system: inpatient population with diabetes; experiment: Degludeca vs NPH, both with Regular Insulin, in hospital (8 patients per group); format: in vivo, human
[6] = system: patients with DM 1 and DRIASM; experiment: Case reports: IDeg in resistance to subcutaneous and intramuscular insulin (DRIASM); format: in vivo, human; conditions: patient 2
[7] = background statement; no reference given; cited from earlier work; remark: listed apart in the source
[8] = system: T1D patients < 18 years; experiment: Real-world clinical follow-up of T1D patients < 18 years switched to insulin degludec; format: in vivo, human
[9] = system: people with T2DM aged ≥ 65 year; experiment: Patient-level meta-analysis of EDITION 1, 2 and 3, participants aged ≥ 65 year, 1 year; format: in vivo, human; conditions: for mean (SD) increase in body weight from baseline to 1 year: human, in vivo; for total number of confirmed (≤ 70 mg/dL) or severe hypoglycemic events, any time [24 h] / total number of confirmed (≤ 70 mg/dL) or severe hypoglycemic events, nocturnal [00:00–05:59 h]: over 12 months
[10] = system: people with T2D and CKD stages 3-4; experiment: AWARD-7 phase 3 study, 26 weeks, both arms combined with insulin lispro; format: in vivo, human
[11] = system: T2DM patients; conditions: for documented hypoglycemia event rate: Poisson regression; for documented (≤ 70 mg/dL) symptomatic hypoglycemia, patients: pooled, 12 months
[12] = system: subjects with T2D inadequately controlled on IGlarU100 and metformin; experiment: DUAL V 26-week open-label treat-to-target trial; format: in vivo, human
[13] = system: T2D pts aged ≥ 65 years on basal insulin; experiment: DELIVER 3 retrospective real-world study; format: in vivo, human; conditions: 6-mo follow-up
[14] = system: people with T2DM; conditions: vs Gla-100, regardless of HbA1c at month 6
[15] = system: adults with T2D using basal insulin; experiment: DELIVER2 real-world study, switch of basal insulin; format: in vivo, human
[16] = system: T2DM pts uncontrolled on BOT with other BI; experiment: TOP-2 prospective observational study, 6 month interim analysis; format: in vivo, human
[17] = arms DU 1.5 mg and insulin glargine

For insulin degludec [IDeg], the “Nº of hypos (nocturnal)” value ([1]; CGMS) was 2 (1-2), the “Nº of hypos (total)” value ([1]; CGMS) was 3 (1-6) and the “Nº of hypos (nocturnal)” value ([1]; SMBG) was 0 (0-2). For the same substance, the “Nº of hypos (total)” value ([1]; SMBG) was 0 (0-4), the “non-severe HEs (NSHEs)” value [2] was 555 per 100 patient years and the “severe hypoglycemia events (HEs)” value [2] was 4.0 per 100 patient years. The “Distribution of INS-AUC0-24, 6-h fraction 0–6 h” value [3] was 23%, the “Distribution of INS-AUC0-24, 6-h fraction 6–12 h” value [3] was 29% and the “Distribution of INS-AUC0-24, 6-h fraction 12–18 h” value [3] was 26%. For the same substance, the “Distribution of INS-AUC0-24, 6-h fraction 18–24 h” value [3] was 21%, the half-life [4] was ~ 25 h and the “episodes of hypoglycemia during hospitalization” value [5] was 4 episodes. The nocturnal hypoglycemia episodes [5] was 1 episodes, the “severe hypoglycemia (< 40 mg/dl) episodes” value [5] was 1 episodes and the “episodes of hipoglycemia after SC IDeg-70 UI” value [6] was 2 episodes. For the same substance, the “Insulinemia (2,6-24,9 μUI/mL)” value ([6]; 04 hour after SC IDeg 70UI) was 75.7 μUI/mL, the mean half-life [7] was “over 25 h” and the adverse events ([8]; human, in vivo) was “No others adverse events were reported”. For the same substance, the “Body weight at baseline” value ([8]; n = 9) was 47.77 kg, the “Body weight after switch” value ([8]; n = 9, follow up 6 months) was 49.63 (± 13.28) kg and the Nocturnal hypoglycaemia ([8]; patients and parents reports) was “reduced”.
With insulin glargine [Gla-100] the “Nº of hypos (nocturnal)” value ([1]; CGMS) was 0 (0-2), the “Nº of hypos (total)” value ([1]; CGMS) was 1 (0-3) and the “Nº of hypos (nocturnal)” value ([1]; SMBG) was 0. The “Nº of hypos (total)” value ([1]; SMBG) was 0 (0-3), the “mean (SD) increase in body weight from baseline to 1 year” value [9] was 1.3 [3.3] kg and the “total number of confirmed (≤ 70 mg/dL) or severe hypoglycemic events, any time [24 h]” value [9] was 5101. The “total number of confirmed (≤ 70 mg/dL) or severe hypoglycemic events, nocturnal [00:00–05:59 h]” value [9] was 839, the Nausea [10, 17] was 2.6% and the diarrhea [10, 17] was 3.1%. The vomiting [10, 17] was 3.1%, the “hypoglycemia rate (≤ 70 mg/dL)” value ([10]; arms DU 1.5 mg once weekly and titrated daily insulin glargine) was 17.1 events/participant/year and the “documented hypoglycemia event rate” value [11] was 5.2 events/year. The “documented (≤ 70 mg/dL) symptomatic hypoglycemia, patients” value [11] was 63.3%, the confirmed hypoglycaemic episodes ([12]; 26 weeks) was 505.4 episodes/100 PYE and the “nocturnal confirmed hypoglycaemia (00:01 to 05:59)” value ([12]; 26 weeks) was 122.8 episodes/100 PYE. The “mean (SD) weight increase from baseline” value ([12]; week 26) was 1.8 kg.
For insulin glargine [Gla-300], the “non-severe HEs (NSHEs)” value [2] was 446 per 100 patient years, the “severe hypoglycemia events (HEs)” value [2] was 2.5 per 100 patient years and the “relative degree of INS fluctuation (Frel), lower vs. Deg-100” value ([3]; 0.4 U/kg/day) was 13%. For the same substance, the “relative degree of INS fluctuation (Frel), lower vs. Deg-100” value ([3]; 0.6 U/kg/day) was 17%, the “Distribution of INS-AUC0-24, 6-h fraction 0–6 h” value [3] was 25% and the “Distribution of INS-AUC0-24, 6-h fraction 6–12 h” value [3] was 26%. The “Distribution of INS-AUC0-24, 6-h fraction 12–18 h” value [3] was 26%, the “Distribution of INS-AUC0-24, 6-h fraction 18–24 h” value [3] was 23% and the “≥ 1 confirmed (≤ 70 mg/dL) or severe nocturnal hypoglycemic event, RR Gla-300 relative to Gla-100” value ([9]; Nocturnal (00:00–05:59 h), safety population) was 0.79. For the same substance, the “mean (SD) increase in body weight from baseline to 1 year” value [9] was 1.1 [4.0] kg, the “total number of confirmed (≤ 70 mg/dL) or severe hypoglycemic events, any time [24 h]” value [9] was 4664 and the “total number of confirmed (≤ 70 mg/dL) or severe hypoglycemic events, nocturnal [00:00–05:59 h]” value [9] was 604. The “less likely to have hypoglycemia vs. other basal insulins” value [13] was 57%, the “hypoglycemia, OR vs. other basal insulins” value ([13]; 95% CI 0.307–0.607, P < 0.0001) was 0.432 and the “rate of confirmed (≤ 70 mg/dL) or severe hypoglycemia” value [14] was “consistently lower rate”. The “documented symptomatic hypoglycemia, odds ratio Gla-300 vs. Gla-100” value ([11]; 95% CI 0.65–0.90, P = 0.001) was 0.77, the “documented hypoglycemia rate ratio Gla-300 vs. Gla-100” value ([11]; 95% CI 0.76–0.92, P < 0.001) was 0.84 and the “documented hypoglycemia event rate” value [11] was 4.4 events/year. The “documented (≤ 70 mg/dL) symptomatic hypoglycemia, patients” value [11] was 57.0%, the “fewer hypo events vs O-BI, LSM difference” value ([15]; 6 m, adjusted for baseline hypo, P < 0.01) was 0.23 E/PPPY and the pts experienced hypo ([15]; 6 m, P = 0.01) was 15.9%. The “all-cause ER service, adjusted odds ratio vs O-BI” value ([15]; 6 m, [0.66–0.91], P < 0.01) was 0.77, the “fewer all-cause ER events vs O-BI, LSM difference” value ([15]; P = 0.01) was 0.18 E/PPPY and the “pts experienced nocturnal hypoglycemia” value ([16]; after switching, vs 1.2% before) was 0.5%. The BW ([16]; six months after switching) was “remained stable”.
